Laboratory results: article PMC2633461, “Porcine sclera as a model of human sclera for in vitro transport experiments: histology, SEM, and comparative permeability” (Molecular Vision, 2009)
Where two headings read alike, the source gives them in different places.

Tests used:
[1] = Description: Human corneal-scleral rims, which were discarded following harvesting of the corneal button (Regional Cornea Bank, Bologna, Italy), were frozen in liquid nitrogen and used within 15 days of explantation.
(§1) Permeation experiments were performed in Franz-type diffusion cells with an area of 0.2 cm^2 for human sclera and 0.6 cm^2 for porcine sclera.
(§2) To reduce edge damage, a thin layer of silicone lubricant was applied to the glass surface, and the minimum force necessary to keep the cell sealed was applied.
(§3) The receptor compartment contained 4 ml of 25 mM HEPES buffer (pH 7.4) added with 0.9% NaCl, kept at 37 °C, and magnetically stirred. […] At predetermined time intervals, the receptor solution was sampled for the determination of drug permeated.
(§4) The transscleral flux, i.e., the amount of drug that crosses 1 cm^2 of sclera in 1 h (J, µg/cm^2h) was calculated as the slope of the regression line at the steady-state while the lag time was the intercept of the regression line on the x-axis. The permeability coefficient (P, cm/s) was calculated as J/Cv where Cv represents the concentration of the donor solution.
(§5) Experiments performed with human sclera were replicated three to four times while those performed on porcine sclera were replicated five to seven times. All the experiments were performed using previously frozen tissues, and acetaminophen permeability was tested also through fresh pig sclera.
(§6) Acetaminophen and insulin were analyzed by HPLC with a Perkin-Elmer instrument (Norwalk, CT), which is made of an isocratic pump LC250 an UV detector LC290, and the Perkin Elmer Turbochrom Workstation software.
(§7) Acetaminophen was analyzed using a C18 Novapak® column (150×3.9 mm; Waters, Milford, MA) and a mobile phase composed of 92% (v/v) 10 mM sodium acetate pH 4 and 8% (v/v) acetonitrile, which was pumped at 1 ml/min. The detector was set at 254 nm.
(§8) Insulin was analyzed using a C18 Symmetry300® column (250×4.6 mm; Waters) at 40 °C and a mobile phase composed of 73% (v/v) aqueous phase and 27% (v/v) acetonitrile, which was pumped at 1 ml/min. The aqueous phase contained anhydrous sodium sulfate 28.4 g/l and phosphoric acid 2.7 ml/l and was adjusted at pH 2.3 with ethanolamine. The detector was set at 214 nm.
(§9) The excitation and emission λ were 490 and 520 nm, respectively.

[2] = porcine sclera
Description: Porcine globes were obtained from pigs (Large White, Landrance, Duroc; 10–11 months) that ranged in weight 145–190 kg and came from a local slaughterhouse. Porcine eyes were either used within 24 h of explantation or frozen at −80 °C until use. After thawing, the adherent muscle tissue was removed from the eye bulb, and the anterior segment of the eye was circumferentially cut behind the limbus. The eye was then cut into two halves, the vitreous was removed, and the anterior sclera was used for permeation experiments after the removal of the underling tissues using a cotton swab. The frozen tissues were used within three months of explantation.
as §1, §2, §3, §4, §5, §6, §7, §8, §9

[3] = ref 11 (Cruysberg et al.); cited from earlier work

In the case of “fluorescein isothiocyanate (FITC)-dextran [FD-150]”, the “Permeability coefficient relative to acetaminophen” value ([1]; human sclera) is reported as 100 times lower, the “P (permeability coefficient)” value ([1]; human sclera, previously frozen, Franz-type cell 0.2 cm^2, donor pH 7.4 HEPES, 37 °C, P = J/Cv, mean±SEM, n = 3-4) is reported as 0.48±0.067 cm/s x10^−6 and the Lag-time ([1]; human sclera, previously frozen, intercept of the regression line on the x-axis, donor pH 7.4, 37 °C, mean±SEM, n = 3-4, SEM) is reported as 28 ± 7 min. For the same substance, the “DK (diffusion coefficient x partition coefficient)” value ([1]; human sclera, from P = DK/H with H = tissue thickness (0.59 mm), mean±SEM, SEM) was 0.028±0.004 cm^2/s x10^−6, the “Flux through human sclera relative to pig sclera” value ([1]; ratio human / pig sclera flux) was 3 times and the “Permeability coefficient relative to acetaminophen” value [2] was 100 times. For the same substance, the Flux ([2]; previously frozen, Franz-type cell 0.6 cm^2, donor 4.9 mg/ml acetaminophen, 1 mg/ml FD-150 or 1 mg/ml insulin in 25 mM HEPES pH 7.4, receptor HEPES pH 7.4 + 0.9% NaCl (0.3% BSA for insulin), 37 °C, slope at steady state, HPLC-UV (FD-150 fluorescence), mean±SEM, n = 5-7, SEM) was 0.57±0.03 µg/cm^2h, the Lag-time ([2]; previously frozen, intercept of the regression line on the x-axis, donor pH 7.4, 37 °C, mean±SEM, n = 5-7, SEM) was 57 ± 7 min and the “DK (diffusion coefficient x partition coefficient)” value ([2]; from P = DK/H with H = tissue thickness (1.25 mm), mean±SEM, SEM) was 0.019±0.009 cm^2/s x10^−6. For the same substance, the “Permeability coefficient through human sclera (literature)” value [3] was “approximately 1.0x10^−7 cm/s”.
